Assay results taken from PubChem BioAssay AID624156 (Broad Institute, 2012).
The entries are a selection whose mix differs from that of the whole data set. Active and inactive are the calls of the source. No stated cut-off is given here; in the data, active means ROS induction above about 79% (passing the limit was not always enough); inconclusive means no clear call, values can overlap the other calls.

Assay: ROS inducers in U2OS cancer cells, primary screen, cell-based, H2DCF-DA fluorescence (AID 624156);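 further: 0% = DMSO vehicle median and 100% = reference compound median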
Conditions: at 10 µM, hits give high values
For FC(F)(F)Oc1ccc(NC2CCNCC2)cc1, the ROS induction (% of piperlongumine) was inactive: -2.47%. For CC(C)(C)OC(=O)N1CCC(Nc2ccc(OC(F)(F)F)cc2)CC1, the ROS induction (% of piperlongumine) was inactive: 8.07%.
